Hits are enriched below; roughly 2.1% of the tested compounds scored in any of these assays.
PDI inh: PDI (human) enzyme inhibition; P07237; PDI insulin aggregation turbidity, A650, 90 min; inhibition, % at 10 µM; 350,000 compounds, 0.052% hits;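 active means mean inhibition across replicates of 30% or more, whatever share of single replicates reach that level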
SMARCA2 activ: activators of SMARCA2 function; MG213 cells, MMTV-luciferase reporter, dexamethasone, overnight; activation, % at 9.1 µM; 370,000 compounds, 1% hits; in the data active means activation above about 7.8%
INS-1E GSIS act: GLuc luminescence reporter in INS-1E cells, primary screen for activators of glucose-dependent secretion of insulin; activation, % at 16.6 µM; 370,000 compounds, 0.61% hits; AID 743287; INS-1E GLuc reporter insulin secretion, 2-3 h;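 active means lowest replicate activation of at least 40%, so every replicate reaches that level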
NR1D1 modulator: Rev-erb alpha (human) modulation. P20393. Rev-erbα–FITC-DNA binding, fluorescence polarization, 90 min. activity, % at 10 µM. 370,000 compounds, 0.79% hits. AID 1259318;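 active means activity above about 14%, limit read from the data; passing the limit was not always enough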
Yeast UUG start: modulators of yeast start codon fidelity, primary screen, whole organism, S. cerevisiae, single point, plate reader | AID 602363, 2012 | S. cerevisiae UUG-firefly luciferase reporter, luminescence/redox ratio | activity score, % at 18.7 µM | hit rate 0.13% among 350,000;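 active = replicate mean at a twofold rise or more, about +100% in these data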;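 also: firefly luciferase made from a UUG start codon reports start codon fidelity; reporter light over untreated wells divided by growth signal over untreated wells; some hits fall short of that in this replicate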
ERp5 block: blocks human ERp5 reductase activity on insulin; Q15084; ERp5 insulin aggregation, absorbance 650 nm, 90 min; inhibition, % at 9.99 µM; 350,000 compounds, 0.05% hits; AID 651711;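 active means mean replicate inhibition above about 25%, with every replicate also reaching it, limit read from the data, passing the limit was not always enough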
SMARCA2 conf: SMARCA2 activation, confirmation screen; activation, % at 9.1 µM; shares compounds with SMARCA2 activ; MG213 cells, MMTV-luciferase with dexamethasone, luminescence, overnight; MG213 cells expressing E1A, Rb sequestered; DMSO wells 0%, reference activator 100%; 3,500 compounds, 30% hits;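 active means activation above its plate's cutoff, the mean activation of tested wells plus 3 SD, cut at about 7.9% in these data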
VP16 Luc act: activates GAL4-VP16 luciferase, flagging SMARCA2 activator hits. HEK293 GAL4-VP16 pG5luc reporter, luciferase luminescence; scaled: DMSO wells 0%, SAHA wells 100%. shares compounds with SMARCA2 activ. activation, % at 9.1 µM. 3,500 compounds, 41% hits. AID 686939;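 active means activation above the solvent-only control well mean plus 3 SD, averaged across control plates, cut at about 5.2% in these data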
Numbers stand for hits; 0 = inactive; - = not tested or not shown.

SMILES	PDI inh	SMARCA2 activ	INS-1E GSIS act	NR1D1 modulator	Yeast UUG start	ERp5 block	SMARCA2 conf	VP16 Luc act
COc1cc(C=Nn2c(-c3cc(-c4ccccc4)n[nH]3)n[nH]c2=S)ccc1OC(C)=O	-	14	-	0	-	-	10	0
O=C(CC1CCCCC1)NC1CCCC1	0	0	0	0	-	-	-	-
O=C(CC1CC2CCC1C2)NC1CCCCCCC1 (stereo not drawn)	0	9.5	0	0	0	0	0	0
Cc1ccc2c(c1)cc(CN(Cc1ccco1)C(=O)N1CCOCC1)c1nnnn12	0	8.6	0	-	0	0	12	0
COc1ccc(C(=O)OCC(=O)c2ccc3c(c2)NC(=O)CO3)cc1OC	0	8.6	0	0	0	0	0	0
COc1ccc(C(=O)OCC(=O)c2ccc3c(c2)NC(=O)CO3)cc1[N+](=O)[O-]	0	0	0	0	0	0	-	-
COc1cccc(C2C(C(=O)OC(C)C)=C(C)Nc3ncnn32)c1 (stereo not drawn)	0	8.2	-	0	0	-	0	0
CN1CCN(C(=O)C[C@@H]2CC[C@H]3[C@@H](COC[C@H](O)CN3Cc3cccc(Cl)c3)O2)CC1	-	-	0	-	0	0	-	-
CCCSc1nc(C)c2cc(C)cc(C)c2n1	0	0	0	0	-	-	-	-
Cc1cc(C)c2nc3nc(C)c(C)cc3c(N)c2c1	0	17	0	0	-	0	50	0
CC1(C)CC(=O)C(N=Nc2ccc(Br)cc2)=C(O)C1	0	8.3	0	0	0	0	11	0
COc1ccc(-c2cc(-c3ccc(C)cc3)n[nH]2)c(O)c1	0	0	0	0	0	0	-	-
COc1ccc(-c2cc(-c3cc(C)ccc3O)[nH]n2)cc1	0	16	0	0	-	0	17	5.8
CCCCCOC(=O)NCC(O)c1ccccc1 (stereo not drawn)	0	13	-	0	0	-	0	11
CCCCOC(=O)NC(NCC(O)c1ccccc1)(C(F)(F)F)C(F)(F)F (stereo not drawn)	0	0	-	0	0	-	-	-
O=C(C[C@@H]1C[C@@H]2c3cc(NC(=O)c4cccnc4)ccc3O[C@@H]2[C@H](CO)O1)NCc1cccnc1	-	-	0	-	0	0	-	-
CCN(C)c1ccc(/C=N\n2nnnc2N)cc1	0	12	-	-	0	-	0	15
Nc1nnnn1/N=C/c1ccc(O)cc1	0	0	-	0	0	-	-	-
Cc1noc(C)c1NC(=O)Nc1cccc2c1O[C@H](CN(C)Cc1ccc(Oc3ccccc3)cc1)[C@H](C)CN([C@H](C)CO)C2=O	-	-	0	-	0	0	-	-
CCN(CC)CCNC(=S)Nc1ccc2nc(N3CCCC3)cc(C)c2c1	0	9.6	0	0	-	0	15	0
CCN(CC)CCNC(=S)Nc1ccc2nc(N3CCN(C)CC3)cc(C)c2c1	0	0	0	0	0	0	-	-
CCCN(CCC)CCCNC(=S)Nc1ccc2nc(N3CCCC3)cc(C)c2c1	0	15	0	0	0	0	16	0
CCCCN(CC)CCCNC(=S)Nc1ccc2nc(N3CCN(C)CC3)cc(C)c2c1	0	0	0	0	0	0	-	-
Cc1sc(=NC(=O)c2ccco2)n(C)c1-c1ccc(F)cc1	0	8.8	-	0	-	-	14	12
O=C(COC(=O)c1cc[n+]([O-])cc1)Nc1ccccc1Cl	0	11	0	0	-	0	0	0
SMILES	PDI inh	SMARCA2 activ	INS-1E GSIS act	NR1D1 modulator	Yeast UUG start	ERp5 block	SMARCA2 conf	VP16 Luc act
CC1(O)C(c2ccccc2)=Nc2ccccc21 (stereo not drawn)	0	9.5	-	0	0	0	12	13
COCC(=O)N1[C@@H]2c3ccc(C4=CCCC4)c(=O)n3C[C@@H]2[C@@H](CO)[C@@H]1C(=O)N1CCCCC1	-	-	0	-	0	0	-	-
COc1ccc(C(=O)NC2CC2)cc1OC1CCN(Cc2cc(C)c(C)cc2C)CC1	0	9.1	0	0	0	0	0	0
COc1ccc(C(=O)NC2CC2)cc1OC1CCN(Cc2cnn(C)c2C)CC1	0	0	0	0	0	0	-	-
C[C@H]1CN([C@@H](C)CO)C(=O)c2cccc(NC(=O)Nc3ccc4c(c3)OCO4)c2O[C@H]1CN(C)Cc1ccc(-c2ccccc2)cc1	-	-	0	-	0	0	-	-
CCOC(=O)C1=C(C)N=c2s/c(=C3\C(=O)Nc4ccccc43)c(=O)n2C1c1ccc2c(c1)OCO2 (stereo not drawn)	0	11	-	0	0	-	0	0
O=C(N/N=C/C(Cl)=C/c1ccccc1)c1ccco1	0	0	0	0	0	0	-	-
CC(=O)Nc1ccc(C(=O)N/N=C/c2cccnc2)cc1	0	0	0	0	-	0	-	-
COc1ccc(C(=O)N/N=C/c2cccnc2)cc1	0	11	0	0	0	0	0	0
O=C(N/N=C/C(Cl)=C\c1ccccc1)c1ccco1	0	12	0	0	0	0	0	8.3
O=C(N/N=C/c1cccnc1)c1ccco1	0	10	0	0	0	0	0	0
CC(C)NC(=O)N(C)C[C@@H]1Oc2ccc(N(S(C)(=O)=O)S(C)(=O)=O)cc2C(=O)N(C)C[C@@H]1C	-	-	0	-	-	-	-	-
C[C@H]1CN([C@@H](C)CO)C(=O)c2ccccc2-c2ccccc2CO[C@@H]1CN(C)C(=O)Nc1ccc(F)cc1	-	-	0	-	-	-	-	-
Cc1ccc(SCC(=O)NNC(=O)c2ccccc2)cc1C	0	9.6	0	0	0	0	0	0
Cc1ccc(C)c(SCC(=O)NNC(=O)c2ccccc2)c1	0	0	0	0	0	0	-	-
CCOC(=O)c1c(NC(=O)CSc2n[nH]c(-c3ccco3)n2)sc(C)c1C	0	0	0	0	0	-	-	-
CCOC(=O)CSc1n[nH]c(-c2ccco2)n1	-	9.4	0	0	0	0	0	0
Nc1cccc(O)c1	-	9.7	0	0	0	0	0	0
Nc1ccc2ccc(O)cc2c1	0	0	0	0	0	0	-	-
COC(=O)[C@H]1[C@H](CO)[C@H]2Cn3c(ccc(C4=CCCCC4)c3=O)[C@H]2N1Cc1cccnc1	-	-	0	-	-	0	-	-
CCOC(=O)NN=C1c2ccccc2-c2ccccc21	0	0	0	0	0	0	-	-
CCOC(=O)Nc1ccc2c(c1)C(=NNC(=S)NC)c1ccccc1-2	0	9.8	0	0	0	0	16	8.4
Cc1cc(C)nc(N2CCC(C(=O)NC3CCCCCC3)CC2)n1	0	0	0	0	0	-	-	-
O=C(NC1CC1)C1CCN(c2ncccn2)CC1	0	9.2	0	0	0	0	0	0
COc1ccccc1NC(=O)c1cccnc1	0	8.7	-	0	0	-	0	0
Cc1c(C(=O)Nc2ccc3c(c2)OCO3)oc2ccccc12	0	9.7	0	0	0	0	0	11
O=C(Nc1ccc2c(c1)OCCO2)C(=O)c1c[nH]c2ccccc12	0	0	0	0	0	0	-	-
